Apparent affinities of Ab-14 variants for a coronavirus HR2 peptide

Antigen: PDVDLGDISGINAS, a 14-residue peptide of the SARS-CoV-2 spike HR2 region.

Ab-14 is the parent antibody, in scFv form: VH, then a (GGGGS)3 linker, then VL. The heavy chain is unchanged in all variants.
VH: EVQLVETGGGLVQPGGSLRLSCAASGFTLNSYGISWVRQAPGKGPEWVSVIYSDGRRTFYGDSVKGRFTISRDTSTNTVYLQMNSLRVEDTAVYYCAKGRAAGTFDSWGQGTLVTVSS
VL: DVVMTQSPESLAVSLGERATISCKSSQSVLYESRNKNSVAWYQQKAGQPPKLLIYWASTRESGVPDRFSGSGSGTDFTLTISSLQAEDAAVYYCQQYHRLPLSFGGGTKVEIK

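These sequences belong to a second round, designed from the earlier measurements on random variants of the parent. Several design methods are mixed in this list. The scFvs were displayed on barcoded MATa yeast, the peptide on MATalpha yeast. Binding brings cells together so that they mate, and sequencing counts the barcode pairs among the diploids. The ratio of observed to expected reads was calibrated, replicate by replicate, on BCL2-family standards whose Kd was known from biolayer interferometry. Mating was done six times.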

Changes read parent residue, position, new residue, counted from the first residue of the VL shown.
Variants here have at most six changes.
Each Kd is an estimate from the mating assay, the geometric mean of the replicates in which the pair was seen; lower is stronger.
A pair that was not seen in any replicate is written "nd"; this usually means weak binding, but a binder can also be missed.

* V29Q R34G W56H = 130 nM (2 of 6 replicates; controls 0 of 18)
* S25L S26Q V29E N35M W56N = 1.2 nM (6 of 6 replicates; controls 1 of 18)
* S25L W56D L102S = 3.1 nM (6 of 6 replicates; controls 1 of 18)
* S25L S26Q V29F W56N E61L = 870 pM (6 of 6 replicates; controls 0 of 18)
* S25L S26D V29W W56S T59Q = 780 pM (6 of 6 replicates; controls 0 of 18)
* S25L S38A W56N S62D = 260 pM (6 of 6 replicates; controls 2 of 18)
* S26P S62L L102N = nd (0 of 6 replicates; controls 0 of 18)
* K24T S25G V29W R34I W56Q = 730 pM (6 of 6 replicates; controls 0 of 18)
* V29M Y31D K36C = 54 nM (6 of 6 replicates; controls 1 of 18)
* K24D V29W W56G S62D = 350 pM (6 of 6 replicates; controls 0 of 18)
* L30P E32A = 190 nM (6 of 6 replicates; controls 1 of 18)
* S25Q S33W W56D T59Q = 1.8 nM (6 of 6 replicates; controls 3 of 18)
* S25V Q27I V29Y Y31L W56E S58P = nd (0 of 6 replicates; controls 0 of 18)
* L30S Y31P N35E W56Y = 37 nM (5 of 6 replicates; controls 0 of 18)
* S25L V29M K36W W56N E61L = 1.3 nM (6 of 6 replicates; controls 0 of 18)
* S25C S26Y S33T = 26 nM (1 of 6 replicates; controls 1 of 18)
* S25V S26Y Q27P V29N W56Q = 740 pM (6 of 6 replicates; controls 1 of 18)
* S25L V29H W56Q = 830 pM (6 of 6 replicates; controls 0 of 18)
* L30R K36V S62L S103Y = 9.3 nM (1 of 6 replicates; controls 0 of 18)
* W56M S62N H98A = 810 pM (6 of 6 replicates; controls 0 of 18)
* S25L Q27Y V29W L30P Y31G W56D = 250 pM (6 of 6 replicates; controls 1 of 18)
* Q27I R34L W56E T59Q = 360 pM (6 of 6 replicates; controls 0 of 18)
* S26G S28G Y31I S38H W56G = 1.2 nM (6 of 6 replicates; controls 1 of 18)
* S25L Q27F V29W S38N W56E = 1.0 nM (6 of 6 replicates; controls 1 of 18)
* S33Q R34Y S103Y = 30 nM (2 of 6 replicates; controls 1 of 18)
* S26G S28G L30A W56G = 990 pM (6 of 6 replicates; controls 0 of 18)
* S25L Q27K Y31F W56N S103R = 1.0 nM (6 of 6 replicates; controls 1 of 18)
* K24E L30A = 160 nM (1 of 6 replicates; controls 0 of 18)
* K24H S25L V29Q W56N E61L = 1.0 nM (6 of 6 replicates; controls 0 of 18)
* S25L S28Q V29T S33T S62E = nd (0 of 6 replicates; controls 0 of 18)
* S25V V29M S38N W56E S62Q Q96S = 350 pM (6 of 6 replicates; controls 0 of 18)
* Y31M A40C = nd (0 of 6 replicates; controls 0 of 18)
* N35P W56S S62Q Y97C R99D = nd (0 of 6 replicates; controls 0 of 18)
* Q27M R34N W56H S62D = 860 pM (6 of 6 replicates; controls 1 of 18)
* S25L S26M V29W W56N = 2.5 nM (6 of 6 replicates; controls 0 of 18)
* R34D S62N = 15 nM (6 of 6 replicates; controls 0 of 18)
* Q27I V29Y R34M W56A = 1.8 nM (6 of 6 replicates; controls 1 of 18)

Extract of 4 entries:

changes,Kd,detected,signal with controls
S25L S26Q V29F W56N E61L,870 pM,6/6,0/18
S25L V29M K36W W56N E61L,1.3 nM,6/6,0/18
S25L S38A W56N S62D,260 pM,6/6,2/18
S25L Q27F V29W S38N W56E,1.0 nM,6/6,1/18

The authors averaged sequences with at least three values out of six and counted those with two or fewer as poor binders.
A sequence measured in both rounds can read differently, since the two assays cover different ranges.
Background: pairings of all light chain designs with three empty control strains gave a value in 4% of cases (median 430 nM, 5th percentile 38 nM). Values in that range, when seen in few replicates, are hard to tell from nonspecific mating. Also given: how often the same scFv was detected with the empty control strains.

Source: Li et al. 2023 (doi:10.1038/s41467-023-39022-2), MIT Lincoln Laboratory and A-Alpha Bio; data file from the FLAb repository.